Measured values: patent US20130189747A1, “Compositions Comprising A Polypeptide Having Cellulolytic Enhancing Activity And A Sulfur-Containing Compound And Uses Thereof” (priority 2010, published 2013)

Tested on: Trichoderma reesei cellulase composition
Test: Hydrolysis of milled unwashed pretreated corn stover (PCS) by the Trichoderma reesei cellulase composition with/without GH61 polypeptide and sulfur-containing compound
Type: biochemical
Details: in the absence of a sulfur-containing compound

B1: T. aurantiacus GH61A polypeptide: GH61A polypeptide having cellulolytic enhancing activity (SEQ ID NO: 14), recombinantly prepared in Aspergillus oryzae JaL250 (protein, listed as Thermoascus aurantiacus)
chain: MSFSKIIATAGVLASASLVAGHGFVQNIVIDGKYYGGYLVNQYPYMSNPPEVIAWSTTATDLGFVDGTGYQTPDIICHRGAKPGALTAPVSPGGTVELQWTPWPDSHHGPVINYLAPCNGDCSTVDKTQLEFFKIAESGLINDDNPPGIWASDNLIAANNSWTVTIPTTIAPGNYVLRHEIIALHSAQNQDGAQNYPQCINLQVTGGGSDNPAGTLGTALYHDTDPGILINIYQKLSSYIIPGPPLYTG
In the case of B1, the “Effect of the GH61 polypeptide on hydrolysis of milled unwashed PCS by the T. reesei cellulase composition” value is reported as “enhanced”.
